Test results reported in publication PMC3385512 (Science Translational Medicine, 2012).
Like-named read-outs stand apart in the source and are kept apart here.

Tested on: KIT-overexpressing H3122 cells
Conditions: crizotinib 1 μM, 7 days

## C[C@@H](Oc1cc(-c2cnn(C3CCNCC3)c2)cnc1N)c1c(Cl)ccc(F)c1Cl [crizotinib]
Absence of exogenously added SCF
  sensitivity, cell viability: highly sensitive
Presence of SCF (100 ng/ml)
  sensitivity, cell viability: highly resistant
